# Assay results reported in patent publication US7001587B2, “Measurement of protein synthesis rates in humans and experimental systems by use of isotopically labeled water” (The Regents of the University of California, priority 2001, dated 2006).
# Experiment: In vitro ^2H label exchange / label stability studies
# Assay type: physicochemical
# Details: incubation in 70% ^2H2O for 24 hr at room temperature, then hydrolysis to free AA
substance,measurement,value
human serum albumin: an unlabeled protein (human serum albumin),^2H incorporation in derivatized AA,no ^2H incorporation was observed
